Molecular target: DA uptake (Rattus norvegicus, UniProt P23977)
Assay: Inhibition of dopamine reuptake into rat brain synaptosomes

Sequences of proteins named here, by UniProt entry; tags and fusion partners are left off.
UniProt P23977, whole entry: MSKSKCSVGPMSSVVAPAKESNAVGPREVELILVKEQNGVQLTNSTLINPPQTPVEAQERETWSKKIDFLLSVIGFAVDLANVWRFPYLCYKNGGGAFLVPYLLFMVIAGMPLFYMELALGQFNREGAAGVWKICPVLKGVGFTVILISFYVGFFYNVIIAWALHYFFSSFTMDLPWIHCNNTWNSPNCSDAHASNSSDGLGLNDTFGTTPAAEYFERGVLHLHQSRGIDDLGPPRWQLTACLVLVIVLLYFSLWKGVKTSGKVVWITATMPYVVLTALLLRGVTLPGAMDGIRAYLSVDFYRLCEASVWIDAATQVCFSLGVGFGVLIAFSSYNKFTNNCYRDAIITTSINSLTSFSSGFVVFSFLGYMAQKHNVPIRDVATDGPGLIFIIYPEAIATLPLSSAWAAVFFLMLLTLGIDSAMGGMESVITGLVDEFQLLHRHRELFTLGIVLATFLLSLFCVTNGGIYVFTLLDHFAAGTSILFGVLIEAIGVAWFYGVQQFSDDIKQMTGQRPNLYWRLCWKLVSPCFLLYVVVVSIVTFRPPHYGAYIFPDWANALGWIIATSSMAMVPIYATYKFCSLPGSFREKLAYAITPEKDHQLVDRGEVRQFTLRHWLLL

CN(C)CCCC1(c2ccc(F)cc2)OCc2cc(C#N)ccc21 (racemic) [Racemic Citalopram, (±)-1-(3-dimethylaminopropyl)-1-(4-fluorophenyl)-1,3-dihydroisobenzofuran-5-carbonitrile, reference compound]
IC50: 13 µM

From patent US20040266864A1, “Methods for treating depression and other CNS disorders using enantiomerically enriched desmethyl-and didesmethyl-metabolites of citalopram” (Sepracor Inc., priority 2001, published 2004)
